System: MDA-MB-231 xenografts
Test: Orthotopic xenograft, combination study
Assay type: in vivo, BALB/c-nude mice
Procedure: In vivo bioluminescent imaging was performed to determine the incidence and metastatic burden of luciferase-labeled 4T1 cells. Mice were injected i.p. with 10 mg/ml of D-luciferin (Gold Biotechnology, MO, USA) and imaged using a PerkinElmer IVIS Spectrum system. PDX were generated as previously described by transplanting fresh fragments orthotopically into 8-week-old female nonobese diabetic (NOD)/severe combined immunodeficient (SCID) mice (Beijing Vital River Laboratory Animal Technology Co., Beijing, China) (P1, passage 1)[40]. The P1 xenografts were then fragmented, digested into single-cell suspension and implanted into mammary fat pad (100 μL PBS containing growth factor reduced 50% Matrigel) of NOD/SCID mice. Once orthotopic xenografts reached an approximate size of 100 mm^3, the mice were randomly divided into three groups (n = 8) for single drug studies and six groups (n = 6) for combination studies and Kaplan-Meier (KM) analyses. […] Animal body weight and xenograft size were measured daily using an electronic balance and a digital caliper, respectively. Xenograft volume (mm^3) was calculated by using the formula: 0.52 × length × [width]^2. Complete response (CR) was achieved if the average xenograft volume for the treatment group was unable to be determined for two or more consecutive measurements. Partial response (PR) was achieved if the average xenograft volume reduced to <50 mm^3 for two or more consecutive measurements. After 3-week drug treatment, all mice were sacrificed by CO2 inhalation. Tumor and vital organs were weighed and isolated for further analysis. IHC analysis of xenograft histology sections and quantitative polymerase chain reaction (qPCR) were performed as previously described.
Data represent means ± SD. *P < 0.05, **P < 0.01, and ***P < 0.001.
Data represent means ± SD (n=6). *P < 0.05, **P
< 0.01, and ***P < 0.001.
Abbreviations: ALT/GOT, alanine
aminotransferase/ glutamic oxaloacetic transaminase; AST/GPT, aspartate aminotransferase/
glutamic pyruvic transaminase; CREA, creatinine; UREA, urea; and ALB, albumin. Data […]

C[C@@H](Oc1cc(-c2cnn(C3CCNCC3)c2)cnc1N)c1c(Cl)ccc(F)c1Cl [Crizotinib]
cells of human origin in lung sections (IHC staining of human HPRT) (MDA-MB-231-engrafted mice): detectable | complete regression of xenografts (number of xenografts) (day 21, NCK 20 mg/kg q.d., OSI-930 20 mg/kg q.d., Crizotinib 50 mg/kg b.i.w.): 1/6 | lung metastasis incidence (mice with detectable lung hHPRT mRNA, qPCR) (n = 6, vehicle 3 out of 6): 3/6

— paper PMC10781691, “Vertical pathway inhibition of receptor tyrosine kinases and BAD with synergistic efficacy in triple negative breast cancer” (NPJ Precision Oncology, 2024)
